Data published in publication PMC12509120, “Complex Investigation of the Similarities and Differences between Ten Commercially Available Human Serum Albumin Preparations” (ACS Omega, 2025).

Experiments:
[1] = Fluorescence quenching of HSA by site I marker furosemide; type: binding; details: HSA 2 μM, furosemide 0–6 μM, PBS pH 7.4, λex 295 nm, λem 340 nm, mean ± SD
Procedure: (§1) Fluorescence measurements were performed with a Hitachi F-4500 fluorescence spectrophotometer (Tokyo, Japan) at room temperature. Emission spectra of HSA solutions were recorded using 295 nm excitation wavelength. In quenching studies, increasing levels (final concentrations: 0, 1, 2, 3, 4, 5, and 6 μM) of site I (furosemide and iodipamide), site II (diazepam and ketoprofen), or heme site (biliverdin and methyl orange) markers were added to albumin (2 μM), and then their quenching effects were evaluated at 340 nm. After background correction, the inner-filter effects of ligands were also corrected based on the following equation: Icor=Iobs×10^(Aex+Aem)/2 where I cor and I obs are the corrected and observed fluorescence emission signals at 340 nm, respectively. Furthermore, A ex and A em are the absorbance values of the site markers applied at 295 and 340 nm, respectively. Stern–Volmer quenching constants (K SV) were determined with linear fitting, employing the following equation: I0/I=1+KSV×[Q] where I 0 marks the fluorescence emission signal of HSA without the ligand, I denotes the emission intensity of HSA in the presence of the ligand, and [Q] is the molar concentration of the quencher.

[2] = Fluorescence quenching of HSA by site I marker iodipamide; type: binding; details: HSA 2 μM, iodipamide 0–6 μM, PBS pH 7.4, λex 295 nm, λem 340 nm, mean ± SD
Procedure: as §1

[3] = Fluorescence quenching of HSA by site II marker diazepam; type: binding; details: HSA 2 μM; for Stern–Volmer quenching constant K SV, diazepam–HSA complex: diazepam 0–6 μM, PBS pH 7.4, λex 295 nm, λem 340 nm, mean ± SD; for Quenching effect of diazepam on the emission signal of albumin: ligand 0–6 μM, relative to other albumins
Procedure: as §1

[4] = Fluorescence quenching of HSA by site II marker ketoprofen; type: binding; details: HSA 2 μM, ketoprofen 0–6 μM, PBS pH 7.4, λex 295 nm, λem 340 nm, mean ± SD
Procedure: as §1

[5] = Fluorescence quenching of HSA by heme site marker biliverdin; type: binding; details: HSA 2 μM; for Stern–Volmer quenching constant K SV, biliverdin–HSA complex / K SV of biliverdin–HSA complex: biliverdin 0–6 μM, λem 340 nm; for Stern–Volmer quenching constant K SV, biliverdin–HSA complex: PBS pH 7.4, λex 295 nm, mean ± SD
Procedure: as §1

[6] = Fluorescence quenching of HSA by heme site marker methyl orange; type: binding; details: HSA 2 μM; for Stern–Volmer quenching constant K SV, methyl orange–HSA complex: methyl orange 0–6 μM, PBS pH 7.4, λex 295 nm, λem 340 nm, mean ± SD
Procedure: as §1

[7] = Ultrafiltration with site I marker warfarin; type: binding; details: warfarin 1.0 μM, HSA 3.5 or 6.0 μM, PBS pH 7.4, 30 kDa filter
Procedure: (§2) In ultrafiltration experiments, we applied our previously reported models. , Briefly, Amicon Ultra centrifugal filters (30 kDa; Merck, Darmstadt, Germany) were washed once with water and once with PBS (each 500 μL). Then, samples (500 μL) were filtered for 10 min (centrifugation: 7500g, 25 °C, fixed angle rotor). Since HSA and albumin-bound molecules cannot pass through the filter with a 30 kDa cutoff value, HSA retains the bound ligand molecules, resulting in the decreased concentrations of site markers in the filtrate. , In the first experiment, the site I marker warfarin (1.0 μM) was filtered without and with HSA (3.5 or 6.0 μM). In the second experiment, the site II marker naproxen (1.0 μM) was filtered in the absence and presence of albumin (1.0 or 1.6 μM). After ultrafiltration, the concentrations of warfarin and naproxen were quantified in the filtrates with the previously described HPLC-FLD and HPLC-UV methods, respectively. ,

[8] = Ultrafiltration with site II marker naproxen; type: binding; details: naproxen 1.0 μM, HSA 1.0 or 1.6 μM, PBS, 30 kDa filter
Procedure: as §2

[9] = Fluorescence emission spectra of HSA solutions; type: physicochemical; details: HSA 2 μM in PBS pH 7.4, λex 295 nm; for Fluorescence emission signal: compared between preparations
Procedure: as §1
Fig. S3: Fluorescence emission spectra of HSA3 (4 μM) in PBS, and the emission signals measured in the
filtrates and in the supernatant (λ ex = 295 nm), where samples were diluted according to the nominal 4 μM
albumin concentration. Each process described below was also performed with PBS (without the protein), where
In ultrafiltration experiments, a 500 μL volume of 20 μM HSA3 solutions (dissolved in PBS or in 25 v/v%
isopropanol–PBS mixture) were filtered (10 min, 7500 g, room temperature) using Amicon Ultra centrifugal
filters (30 kDa; Merck, Darmstadt, Germany). Thereafter, the filtrate was homogenized and diluted to fivefold
volume with PBS (final isopropanol level ≈ 5 v/v%).
In the other experiment, a 150 μL volume of 240 μM HSA3 solution (dissolved in PBS) was prepared, then 300
μL of acetonitrile was added. After intensive vortexing, the precipitated protein was removed by centrifugation
(10 min, 14,000 g, room temperature). Thereafter, the supernatant was diluted to 20-fold with PBS (final
acetonitrile level ≈ 3.3 v/v%).
(1 picture or pasted object on this page, not shown here)

[10] = ligand 0–6 μM, relative to other albumins

Substance	Stern–Volmer quenching constant K SV, furosemide–HSA complex [1]	Stern–Volmer quenching constant K SV, iodipamide–HSA complex [2]	Stern–Volmer quenching constant K SV, diazepam–HSA complex [3]	Stern–Volmer quenching constant K SV, ketoprofen–HSA complex [4]	Stern–Volmer quenching constant K SV, biliverdin–HSA complex [5]	K SV of biliverdin–HSA complex [5] [L/mol]	Stern–Volmer quenching constant K SV, methyl orange–HSA complex [6]	Filtered fraction of warfarin in the presence of HSA [7]	Filtered concentration of naproxen in the presence of HSA [8]	Quenching effect of biliverdin on the emission signal of albumin [5, 10]	Quenching effect of methyl orange on the emission signal of albumin [6, 10]	Fluorescence emission signal [9]	Fluorescence emission wavelength maximum [9] [nm]	Quenching effect of diazepam on the emission signal of albumin [3]
HSA1: Human serum albumin preparation, Merck (Sigma-Aldrich) A1653, lot SLCD1119, lyophilized powder	0.96 ± 0.06 × 10^–5 L/mol	3.06 ± 0.08 × 10^–5 L/mol	0.41 ± 0.02 × 10^–5 L/mol	0.41 ± 0.03 × 10^–5 L/mol	2.78 ± 0.12 × 10^–5 L/mol	260000 to 380000	0.61 ± 0.07 × 10^–5 L/mol	very similar decreases	comparable changes					
HSA2: Human serum albumin preparation, Merck (Sigma-Aldrich) A9511, lot SLBS5934, lyophilized powder	1.15 ± 0.07 × 10^–5 L/mol	2.63 ± 0.07 × 10^–5 L/mol	0.30 ± 0.00 × 10^–5 L/mol	0.50 ± 0.01 × 10^–5 L/mol	5.34 ± 0.12 × 10^–5 L/mol		1.24 ± 0.02 × 10^–5 L/mol	considerably higher	higher concentrations	somewhat stronger impacts	largest changes	lowest emission signal		
HSA4: Human serum albumin preparation, Merck (EMD Millipore) 12666, lot 3856206, low heavy metals	1.15 ± 0.11 × 10^–5 L/mol	4.96 ± 0.10 × 10^–5 L/mol	0.30 ± 0.01 × 10^–5 L/mol	0.40 ± 0.02 × 10^–5 L/mol	3.56 ± 0.11 × 10^–5 L/mol	260000 to 380000	0.73 ± 0.06 × 10^–5 L/mol	very similar decreases	comparable changes					
HSA5: Human serum albumin preparation, Merck (EMD Millipore) 126654, lot 3870449, lyophilized powder	1.15 ± 0.05 × 10^–5 L/mol	5.10 ± 0.11 × 10^–5 L/mol	0.27 ± 0.01 × 10^–5 L/mol	0.39 ± 0.01 × 10^–5 L/mol	3.69 ± 0.14 × 10^–5 L/mol	260000 to 380000	0.73 ± 0.03 × 10^–5 L/mol	very similar decreases	comparable changes					
HSA6: Human serum albumin preparation, Merck (EMD Millipore) SRP6516, lot 8A24L75460, lyophilized powder	1.22 ± 0.11 × 10^–5 L/mol	3.54 ± 0.12 × 10^–5 L/mol	0.34 ± 0.04 × 10^–5 L/mol	0.42 ± 0.04 × 10^–5 L/mol	2.96 ± 0.15 × 10^–5 L/mol	260000 to 380000	0.69 ± 0.02 × 10^–5 L/mol	very similar decreases	comparable changes			higher	~345	
HSA7: Human serum albumin preparation, Merck (Sigma-Aldrich) A1887, lot SLCB2530, essential fatty acid free	0.95 ± 0.04 × 10^–5 L/mol	3.71 ± 0.00 × 10^–5 L/mol	0.57 ± 0.02 × 10^–5 L/mol	0.45 ± 0.01 × 10^–5 L/mol	2.61 ± 0.10 × 10^–5 L/mol	260000 to 380000	0.49 ± 0.04 × 10^–5 L/mol	somewhat lower values	lower levels					largest changes
HSA9: Human serum albumin preparation, Merck (Sigma-Aldrich) A3782, lot SLCM4058, fatty acid free and globulin free	1.10 ± 0.01 × 10^–5 L/mol	5.97 ± 0.09 × 10^–5 L/mol	0.67 ± 0.01 × 10^–5 L/mol	0.48 ± 0.01 × 10^–5 L/mol	2.94 ± 0.21 × 10^–5 L/mol	260000 to 380000	0.54 ± 0.03 × 10^–5 L/mol	somewhat lower values	lower levels					largest changes
